# Patent US20240141330A1, “METHODS AND COMPOSITIONS FOR MUTAGENESIS SCREENING IN MAMMALIAN CELLS” (THE BOARD OF REGENTS OF THE UNIVERSITY OF TEXAS SYSTEM, priority 2021, published 2024)
# System: human NSCLC cells
# Format: cell-based
smiles,measurement,value
COc1cc2ncnc(Nc3ccc(F)c(Cl)c3)c2cc1OCCCN1CCOCC1 [Gefitinib],Effect on transduced NSCLC cells,killed most of the NSCLC cells; also recorded: some surviving cells

# Entries after “also recorded” stand apart in the source; their conditions may differ.
